Experimental data reported in article PMC10459710 (Viruses, 2023).

System: HSV-1
Experiment: Virus attachment assay (IFA, anti-gD)
Format: cell-based, Herpes simplex virus type 1 (strain H129)
Conditions: 100 µg/mL, 4 °C, MOI 10

## Dextran Sulfate Sodium [DSS]
  binding of HSV-1 to Vero cells: completely inhibited the binding
